Reference: ChEMBL document CHEMBL2311536 (J Med Chem, 2013)

By UniProt entry, the sequences of proteins in these tests, tags left out. Where a name states a change or a piece, a line headed by the entry shows the natural chain unless it says otherwise.
UniProt Q9GZT9: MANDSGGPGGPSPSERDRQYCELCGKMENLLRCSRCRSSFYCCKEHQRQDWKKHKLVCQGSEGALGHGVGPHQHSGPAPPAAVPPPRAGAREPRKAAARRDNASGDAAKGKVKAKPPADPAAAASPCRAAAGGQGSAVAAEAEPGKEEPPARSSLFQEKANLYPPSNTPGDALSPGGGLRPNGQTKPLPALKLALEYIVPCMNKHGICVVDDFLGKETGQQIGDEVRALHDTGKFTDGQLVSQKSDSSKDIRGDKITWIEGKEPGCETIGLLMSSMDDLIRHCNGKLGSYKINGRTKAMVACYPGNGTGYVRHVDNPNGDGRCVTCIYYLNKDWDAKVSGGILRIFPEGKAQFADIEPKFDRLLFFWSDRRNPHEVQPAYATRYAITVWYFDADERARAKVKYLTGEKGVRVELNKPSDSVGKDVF

How the values were obtained:
[1] = target: T1, Egl nine homolog 1 (Homo sapiens, UniProt Q9GZT9); experiment: Inhibition of human PHD2 catalytic domain (181 to 426) Mn2 expressed in Escherichia coli by NMR spectroscopic analysis
[2] = target: T1, Egl nine homolog 1; experiment: Binding affinity to human PHD2 catalytic domain (181 to 426) Mn2 expressed in Escherichia coli by NMR spectroscopic analysis

IC50 [1]: 15 µM
Kd [2]: 60 µM
Structure (SMILES): O=C(O)c1ccc(O)c2ncccc12
